# Values quoted from earlier work, collected in patent publication US20120058950A1, “DETECTION OF NEUROPEPTIDES ASSOCIATED WITH PELVIC PAIN DISORDERS AND USES THEREOF” (University of Vermont and State Agricultural College, priority 2003, published 2012).
# How the values were obtained:
# [1] = system: isolated human detrusor smooth muscle
# [2] = system: micturition contractions; details: 10 nmol/kg intravenously, urethane-anesthetized hamster
# [3] = system: micturition contractions; details: 10 nmol/kg intravenously, rat
substance,measurement,setting,value
Calcitonin Gene-Related Peptide [CGRP],effect on isometric tension,[1],little effect
same,mean amplitude of micturition contractions MAC,[2],decreased
same,pressure threshold for micturition,[2],decreased
same,mean amplitude of micturition contractions MAC,[3],not in the rat at this dose
same,pressure threshold for micturition,[3],not in the rat at this dose

# Where two headings read alike, the source gives them in different places.
